Here are results for 1 compound from publication PMC2831097, “Inhibition of L-Arginine Metabolizing Enzymes by L-Arginine-Derived Advanced Glycation End Products” (Journal of Clinical Biochemistry and Nutrition, 2010).

This test concerns the target T1, recombinant eNOS (Bos taurus, UniProt P29473).
T1 construct: purchased Sigma Chemicals (St. Louis, MO)
The test can be described thus: NOS activity assay, conversion of L-[14C(U)]-arginine to L-[14C(U)]-citrulline, eNOS. The test is classed as biochemical, bovine. The following applies: 50 µM L-arginine, 30 min at 37°C, pH 7.4; means ± SD (n = 4). An excerpt:
L-Arginine, ADMA, N^G-hydroxy-L-arginine (NOHA), nicotinamide adenine dinucleotide phosphate reduced form (NADPH), flavin adenine dinucleotide (FAD), flavin mononucleotide (FMN), (6R)-5,6,7,8-tetrahydrobiopterin (BH4), recombinant eNOS (from bovine), iNOS (from mouse macrophage), Dowex® AG50W-X8 cation-exchange resin (mesh size, 100–200) were all purchased from Sigma Chemicals (St. Louis, MO). Ultima Gold XR scintillation liquid was from PerkinElmer (Shelton, CA). Recombinant nNOS (from rat) and N^G-hydroxy-nor-arginine (nor-NOHA) were obtained from Cayman Chemicals. Arginase (from bovine liver) was from Alexis Biochemicals (Lausen, Switzerland). […] All other chemicals were obtained from Wako Pure Chemical Industries, Osaka, Japan.
The NOS activities were determined by monitoring the conversion of L-[^14C(U)]-arginine (Moravek, Brea, CA) to L-[^14C(U)]-citrulline as previously described. […] L-[^14C(U)]-Citrulline was eluted twice with 1 ml of distilled water, and the eluted fractions mixed with 10 ml of cocktail (Ultima Gold XR) were quantified using a liquid scintillation counter. […]

In general, IC50 refers to the concentration that inhibits the measured activity by half.

In the case of `CNC(=N)NCCC[C@H](N)C(=O)O` [L-NMMA, N^G-monomethyl-L-arginine, reference compound], the concentration for half-maximal inhibition (IC50) stood at 5 ± 1 µM.
